For assay [1], the target named is human ghrelin receptor (hGHS-R1a) (Homo sapiens, UniProt Q92847).
The target in another assay is motilin receptor (Homo sapiens, UniProt O43193). The assay is described as follows: Selectivity versus the motilin receptor.

Amino acid sequences for entries named in this document (tags omitted).
UniProt Q92847, whole entry: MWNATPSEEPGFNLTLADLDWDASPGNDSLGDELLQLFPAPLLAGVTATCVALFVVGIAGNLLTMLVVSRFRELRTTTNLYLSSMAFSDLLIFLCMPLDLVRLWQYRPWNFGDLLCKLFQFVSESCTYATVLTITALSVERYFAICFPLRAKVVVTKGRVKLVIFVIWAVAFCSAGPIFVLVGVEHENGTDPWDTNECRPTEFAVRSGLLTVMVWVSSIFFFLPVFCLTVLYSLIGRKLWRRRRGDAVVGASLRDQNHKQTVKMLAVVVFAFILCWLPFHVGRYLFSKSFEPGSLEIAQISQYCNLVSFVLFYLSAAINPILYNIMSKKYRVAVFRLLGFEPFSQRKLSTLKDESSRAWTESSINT
UniProt O43193, whole entry: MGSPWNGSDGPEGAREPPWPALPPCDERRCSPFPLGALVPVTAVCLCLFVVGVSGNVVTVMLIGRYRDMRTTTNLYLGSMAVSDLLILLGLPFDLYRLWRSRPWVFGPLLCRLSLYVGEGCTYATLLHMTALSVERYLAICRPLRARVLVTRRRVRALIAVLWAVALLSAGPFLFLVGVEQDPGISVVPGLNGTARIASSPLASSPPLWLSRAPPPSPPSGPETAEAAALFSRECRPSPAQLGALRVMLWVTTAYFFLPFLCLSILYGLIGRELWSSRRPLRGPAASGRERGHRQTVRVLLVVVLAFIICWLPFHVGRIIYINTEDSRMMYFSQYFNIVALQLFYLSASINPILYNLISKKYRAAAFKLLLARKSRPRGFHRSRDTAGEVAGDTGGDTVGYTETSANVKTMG

The values below come from patent USRE42013E1.

Structures are written as SMILES.

In the case of `CC[C@H](C)[C@@H]1NCCCc2ccccc2C=CCNC(=O)[C@@H](Cc2ccccc2)NC(=O)[C@@H](C)N(C)C1=O`, in assay [1], the EC50 – broadly, the midpoint of the concentration-response curve – is 0.001 to 0.1 µM.

On to `C[C@@H]1C(=O)N[C@H](Cc2ccc(F)cc2)C(=O)NCCCc2ccc(F)cc2OCCN[C@@H](C2CC2)C(=O)N1C`, for which, on motilin receptor, the Selectivity is 2500/1.

`CCC(C)[C@@H]1NC[C@@H](C)Oc2ccccc2CCCNC(=O)[C@@H](Cc2ccccc2)NC(=O)[C@@H](C)N(C)C1=O` (single isomer, unassigned) [36] gave an EC50 in assay [1] of 0.1 to 1 µM.
